Literature values in patent EP3677259A1, “USE OF ARACHIDONYL TRIFLUOROMETHYL KETONE” (Mosaiques Diagnostics And Therapeutics AG, priority 2019, dated 2020).

Target: T1, Ca2+-dependent cytosolic cPLA2 (Homo sapiens, UniProt P47712)
T1 sequence (P47712 1-749): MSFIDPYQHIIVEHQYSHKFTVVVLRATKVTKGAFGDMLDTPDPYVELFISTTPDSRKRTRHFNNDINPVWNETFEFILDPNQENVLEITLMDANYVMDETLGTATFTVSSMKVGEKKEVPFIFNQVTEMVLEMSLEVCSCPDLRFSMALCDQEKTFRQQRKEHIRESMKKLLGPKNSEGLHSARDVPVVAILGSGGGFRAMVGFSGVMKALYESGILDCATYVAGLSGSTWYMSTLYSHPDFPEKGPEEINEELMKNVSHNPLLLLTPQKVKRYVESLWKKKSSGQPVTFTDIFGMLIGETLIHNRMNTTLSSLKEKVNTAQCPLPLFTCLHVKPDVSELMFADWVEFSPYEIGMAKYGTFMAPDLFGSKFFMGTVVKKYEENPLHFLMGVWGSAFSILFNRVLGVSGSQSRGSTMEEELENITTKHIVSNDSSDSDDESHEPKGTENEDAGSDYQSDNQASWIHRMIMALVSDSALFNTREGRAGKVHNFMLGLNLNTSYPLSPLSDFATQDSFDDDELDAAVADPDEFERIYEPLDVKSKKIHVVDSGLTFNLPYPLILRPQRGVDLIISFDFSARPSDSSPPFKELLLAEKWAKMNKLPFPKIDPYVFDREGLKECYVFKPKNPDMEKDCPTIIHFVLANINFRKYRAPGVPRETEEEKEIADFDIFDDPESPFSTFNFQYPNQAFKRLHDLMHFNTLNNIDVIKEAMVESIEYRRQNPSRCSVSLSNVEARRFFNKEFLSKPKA
Settings: cited from earlier work

Palmityl trifluoromethylketone [PACOCF3]
IC50: 45 µM
